Amino acid sequences for entries named in this document (tags omitted).
UniProt P50750, whole entry: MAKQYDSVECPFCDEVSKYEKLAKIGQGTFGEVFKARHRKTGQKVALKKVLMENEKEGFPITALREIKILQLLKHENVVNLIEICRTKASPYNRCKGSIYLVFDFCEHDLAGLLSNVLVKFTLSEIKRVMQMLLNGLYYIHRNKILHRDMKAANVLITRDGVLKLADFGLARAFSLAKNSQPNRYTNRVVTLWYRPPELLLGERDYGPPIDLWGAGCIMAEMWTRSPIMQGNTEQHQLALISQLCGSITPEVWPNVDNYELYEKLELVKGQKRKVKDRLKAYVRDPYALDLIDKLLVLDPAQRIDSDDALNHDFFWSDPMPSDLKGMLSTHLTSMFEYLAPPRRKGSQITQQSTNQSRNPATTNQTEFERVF

According to ChEMBL document CHEMBL3856187, “Cyclin Dependent Kinase 9 Inhibitors for Cancer Therapy” (J Med Chem, 2016):

Molecular target: Cyclin-dependent kinase 9 (Homo sapiens, UniProt P50750)
Test: Inhibition of human GST-tagged CDK9

CN1C/C=C/CCOc2cccc(c2)-c2ccnc(n2)Nc2cccc(c2)C1 [ZOTIRACICLIB]
IC50: 3 to 15 nM
